Values of other authors, collected in patent US7662571B2, “Mitochondrial markers of ischemia” (Nourheart Inc., priority 2005, dated 2010).

Amino acid sequences for entries named in this document (tags omitted). A change or cut given only in a name is not applied to a line headed by its entry.
UniProt P25090: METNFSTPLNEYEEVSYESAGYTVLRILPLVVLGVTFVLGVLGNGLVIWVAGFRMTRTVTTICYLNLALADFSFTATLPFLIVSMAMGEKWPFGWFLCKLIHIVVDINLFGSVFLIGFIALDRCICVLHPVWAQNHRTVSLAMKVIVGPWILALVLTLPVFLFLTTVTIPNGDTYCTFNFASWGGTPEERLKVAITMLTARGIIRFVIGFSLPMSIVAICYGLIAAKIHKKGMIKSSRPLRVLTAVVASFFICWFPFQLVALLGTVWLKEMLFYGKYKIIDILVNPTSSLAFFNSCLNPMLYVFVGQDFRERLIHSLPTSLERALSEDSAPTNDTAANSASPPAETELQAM

Target: FPR-like 1 (FPRL1) (Homo sapiens, UniProt P25090)
Settings: FPRL1, low-affinity receptor

## formyl-Met-Leu-Phe [fMLP]
  concentration needed for receptor activation: only activated by high (micromolar) concentrations
